# Biological target: CB1 (Homo sapiens (Human), UniProt P21554)
# Sequences of proteins named here, by UniProt entry; tags and fusion partners are left off.
# UniProt P21554, whole entry: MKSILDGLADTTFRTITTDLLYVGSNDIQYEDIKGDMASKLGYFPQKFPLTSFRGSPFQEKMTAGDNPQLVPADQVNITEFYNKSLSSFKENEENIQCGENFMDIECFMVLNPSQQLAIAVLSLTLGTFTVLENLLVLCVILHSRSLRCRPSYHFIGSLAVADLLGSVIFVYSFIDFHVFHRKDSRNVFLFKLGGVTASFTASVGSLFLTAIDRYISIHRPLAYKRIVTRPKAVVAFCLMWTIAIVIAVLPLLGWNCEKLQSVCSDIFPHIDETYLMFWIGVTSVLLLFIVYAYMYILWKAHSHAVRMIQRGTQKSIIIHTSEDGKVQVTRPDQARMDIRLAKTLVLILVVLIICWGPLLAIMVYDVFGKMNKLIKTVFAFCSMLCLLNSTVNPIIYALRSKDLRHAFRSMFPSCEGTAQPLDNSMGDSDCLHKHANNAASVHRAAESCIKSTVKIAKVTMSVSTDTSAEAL
# Assay: Displacement of [3H]CP55940 in membranes of CHO-K1 cells over-expressing CB1;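 also: reported values are averages of 3-6 independent measurements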
# Settings: CB1 versus CB2
smiles,measurement,value
O=C(CC1CCCCC1)NC1CCN(c2ncnc3c2nc(-c2ccccc2Cl)n3-c2ccc(Cl)cc2)CC1,Binding Selectivity using CP55940 Displacement,1223

# Reference: patent US9187480B2, “Peripherally restricted diphenyl purine derivatives” (RESEARCH TRIANGLE INSTITUTE, priority 2012, dated 2015)
